Results: PubChem BioAssay (NCI)
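Results reflect a 48-hour exposure of cells in 96-well plates to compound at five concentrations. Abbreviation: GI50, concentration required for 50% inhibition of growth. TGI is the concentration that stops growth completely.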

Tests used:
Experiment in all cases: DTP human tumour cell line panel, 48 h
[1] = system: NCI-H23 lung
[2] = system: HS 578T breast
[3] = system: SNB-75 CNS
[4] = system: KM12 colon
[5] = system: SF-295 CNS
[6] = system: TK-10 renal
[7] = system: RPMI-8226 leukemia
[8] = system: HT29 colon
[9] = system: PC-3 prostate
[10] = system: NCI-H322M lung
[11] = system: CAKI-1 renal
[12] = system: SNB-19 CNS
[13] = system: SW-620 colon
[14] = system: UACC-62 melanoma
[15] = system: UO-31 renal
[16] = system: MOLT-4 leukemia
[17] = system: NCI-H226 lung
[18] = system: OVCAR-5 ovarian
[19] = system: HCT-15 colon
[20] = system: MDA-MB-231 breast
[21] = system: SF-268 CNS
[22] = system: SF-539 CNS
[23] = system: SK-MEL-2 melanoma
[24] = system: NCI-H460 lung
[25] = system: A549 NSCLC
[26] = system: SN12C renal
[27] = system: OVCAR-4 ovarian

`O=[N+]([O-])C1(Br)CCC(Br)([N+](=O)[O-])CC1` (centres undefined) gave a GI50 [1] of 16.6 µM, a TGI [1] of 32 µM and a GI50 [2] of 24.5 µM. For the same compound, the TGI [2] was 65.3 µM, the GI50 [3] was 18.4 µM and the TGI [3] was 33.7 µM. For the same compound, the GI50 [4] was 20.3 µM, the TGI [4] was 36.8 µM and the GI50 [5] was 18.4 µM. It also gave a TGI [5] of 36.1 µM, a GI50 [6] of 11.5 µM and a TGI [6] of 24.4 µM. It also gave a GI50 [7] of 0.907 µM, a TGI [7] of 2.43 µM and a GI50 [8] of 11.6 µM. For the same compound, the TGI [8] was 25.6 µM, the GI50 [9] was 16.8 µM and the TGI [9] was 30.9 µM. The GI50 [10] was 15.3 µM, the TGI [10] was 30.3 µM and the GI50 [11] was 2.42 µM. For the same compound, the TGI [11] was 8.13 µM, the GI50 [12] was 18.9 µM and the TGI [12] was 34.5 µM. It also gave a GI50 [13] of 3.54 µM, a TGI [13] of 23.7 µM and a GI50 [14] of 15.5 µM. For the same compound, the TGI [14] was 28.9 µM, the GI50 [15] was 12 µM and the TGI [15] was 25.4 µM. For the same compound, the GI50 [16] was 2.07 µM, the TGI [16] was 4.62 µM and the GI50 [17] was 11.8 µM. For the same compound, the TGI [17] was 24.9 µM, the GI50 [18] was 9.17 µM and the TGI [18] was 21.4 µM. For the same compound, the GI50 [19] was 4.9 µM, the TGI [19] was 19.8 µM and the GI50 [20] was 13.6 µM. The TGI [20] was 26.6 µM, the GI50 [21] was 24.5 µM and the TGI [21] was 87.8 µM. For the same compound, the GI50 [22] was 6.78 µM, the TGI [22] was 19.8 µM and the GI50 [23] was 22.8 µM. For the same compound, the TGI [23] was 55.7 µM, the GI50 [24] was 34.2 µM and the TGI [24] was over 100 µM. For the same compound, the GI50 [25] was 19 µM, the TGI [25] was 35.7 µM and the GI50 [26] was 12.8 µM. It also gave a TGI [26] of 25.4 µM, a GI50 [27] of 9.82 µM and a TGI [27] of 22.5 µM.
